{"source": "patent US11390670B2", "about": "“Antibodies against LIF and uses thereof” (MEDIMMUNE LIMITED, priority 2016, dated 2022)", "molecules": {"B1": {"name": "h5D8: humanized 5D8 anti-LIF antibody comprising H2 and L2; C100 is the unsubstituted cysteine 100 reference in Table 9 (antibody)", "heavy": "QVQLQESGGGLVKPGGSLRLSCAASGFTFSHAWMHWVRQAPGKGLEWVGQIKAKSDDYATYYAESVKGRFTISRDDSKNTLYLQMNSLKTEDTAVYYCTCWEWDLDFWGQGTMVTVSSASTKGPSVFPLAPSSKSTSGGTAALGCLVKDYFPEPVTVSWNSGALTSGVHTFPAVLQSSGLYSLSSVVTVPSSSLGTQTYICNVNHKPSNTKVDKKV[left out - human IgG1 Fc]", "light": "DIVMTQTPLSSPVTLGQPASISCRSSQSLLDSDGHTYLNWLQQRPGQPPRLLIYSVSNLESGVPDRFSGSGAGTDFTLKISRVEAEDVGVYYCMQATHAPPYTFGQGTKLEIKRTVAAPSVFIFPPSDEQLKSGTASVVCLLNNFYPREAKVQWKVDNALQSGNSQESVTEQDSKDSTYSLSSTLTLSKADYEKHKVYACEVTHQGLSSPVTKSFNRGEC"}}, "key": {"[1]": {"test_system": "CCL22 and CD206 (MRC1) expression", "assay": "Human organotypic tissue slice culture model, M2 macrophage markers", "format": "cell-based", "conditions": "three patient samples"}, "ID8 cells": {"test_system": "ID8 cells", "assay": "Ovarian orthotopic syngeneic tumor model ID8 in mice", "format": "in vivo", "conditions": "200 μg/mouse and above, twice weekly", "method": "ID8 cells were cultured in Dulbecco's Modified Eagle Medium (DMEM) (Gibco, Invitrogen), supplemented with 10% Fetal Bovine Serum (FBS) (Gibco, Invitrogen), 40 U/mL Penicillin and 40 μg/mL Streptomycin (PenStrep) (Gibco, Invitrogen) and 0.25 μg/mL Plasmocin (Invivogen).\nThe ID8 cells were harvested, washed in PBS, centrifuged at 400 g for 5 min and resuspended in PBS. Cells were kept on ice to maintain optimal viability and 200 μL of the cell suspension was injected intraperitoneally with a 27G needle. The final cell number implanted into mice was 5×10^6.\nBody weights were measured 2 times/week and tumor progression was monitored by measuring abdominal girth using a caliper (Fisher Scientific)."}, "[2]": {"test_system": "KLN205 non-small cell lung cancer (NSCLC) cells", "assay": "Orthotopic syngeneic KLN205 non-small cell lung cancer mouse model", "format": "in vivo", "conditions": "15 mg/kg or 30 mg/kg intraperitoneally twice a week, compared to vehicle", "method": "To determine the ability of the humanized 5D8 clone to inhibit a LIF positive cancer in vivo this antibody was tested in a mouse model of non-small cell lung carcinoma (NSCLC).\nThe murine non-small cell lung cancer (NSCLC) cell line KLN205 with high LIF levels was stably infected with lentivirus expressing the firefly luciferase gene for in vivo bioluminescence monitoring. To develop the mouse model, 5×10^5 KLN205 non-small cell lung cancer (NSCLC) cells were orthotopically implanted into the left lung of 8-week-old immunocompetent syngeneic DBA/2 mice by intercostal puncture. […] For the bioluminescence imaging, mice received an intraperitoneal injection of 0.2 mL of 15 mg/mL D-luciferin under 1-2% inhaled isoflurane anesthesia. The bioluminescence signals were monitored using the IVIS system 2000 series (Xenogen Corp., Alameda, Calif., USA) consisting of a highly sensitive cooled CCD camera. Living Image software (Xenogen Corp.) was used to grid the imaging data and integrate the total bioluminescence signals in each boxed region. Data were analyzed using the total photon flux emission (photons/second) in the regions of interest (ROI). […] Data are presented as mean±SEM."}, "human U251 GBM cells": {"test_system": "human U251 GBM cells", "assay": "Orthotopic GBM tumor model with luciferase expressing U251 cells in mice", "format": "in vivo, mouse", "conditions": "200 μg or 300 μg twice a week, after 7 days of treatment", "method": "Results of this study are shown in FIG. 7A (quantitation at day 26 post treatment).\nU251 cells stably expressing luciferase were harvested, washed in PBS, centrifuged at 400 g for 5 min, resuspended in PBS and counted with an automated cell counter (Countess, Invitrogen). Cells were kept on ice to maintain optimal viability. Mice were anaesthetized with intraperitoneal administration of Ketamine (Ketolar50®)/Xylacine (Rompún®) (75 mg/kg and 10 mg/kg respectively). Each mouse was carefully placed in the stereotactic device and immobilized. Hair from the head was removed with depilatory cream, and the head skin was cut with a scalpel to expose the skull. A small incision was carefully made with a drill in the coordinates 1.8 mm lateral and 1 mm anterior to the Lambda. […]\nBody weight and tumor volume: Body weight was measured 2 times/week and tumor growth was quantified by bioluminescence on day 7 (Xenogen IVIS Spectrum). To quantify bioluminescence activity in vivo, mice were anaesthetized using isofluorane, and injected intraperitoneally with luciferin substrate (PerkinElmer) (167 μg/kg).\nTumor size as determined by bioluminescence (Xenogen IVIS Spectrum) was evaluated at day 7. The individual tumor measurements and mean±SEM for each treatment group were calculated. Statistical significance was determined by the unpaired non-parametric Mann-Whitney U-test."}, "[3]": {"test_system": "LIF-induced STAT3 phosphorylation at tyrosine 705", "assay": "Inhibition of LIF-induced STAT3 phosphorylation by western blot, 5D8 humanization panel", "format": "cell-based, human", "conditions": "U251 glioma cells, serum starved 8 hours, antibodies over night at 10 μg/ml", "method": "Inhibition of LIF-induced STAT3 phosphorylation at tyrosine 705 was determined by western blot. U251 glioma cells were plated in 6-well plates at a density of 100.000 cells/well. Cells were cultured in complete medium for 24 hours before any treatment and after that, cells were serum starved for 8 hours. After that, cells with the indicated antibodies over night at a concentration of 10 μg/ml. After treatment, proteins were obtained in radio-immunoprecipitation assay (RIPA) lysis buffer containing phosphatase and protease inhibitors, quantified (BCA-protein assay, Thermo Fisher Scientific) and used in western blot. For western blot, membranes were blocked for 1 hour in 5% non-fat dried milk—TBST and incubated with the primary antibody overnight (p-STAT3, catalog #9145, Cell Signaling or STAT3, catalog #9132, Cell Signaling) or 30 minutes (β-actin-peroxidase, catalog #A3854, Sigma-Aldrich). Membranes were then washed with TBST, incubated with secondary and washed again. Proteins were detected by chemiluminescence (SuperSignal Substrate, catalog #34076, Thermo Fisher Scientific). The darker the pSTAT3 band the less inhibition is present."}, "[4]": {"test_system": "STAT3 phosphorylation (Tyr 705)", "assay": "Inhibition of STAT3 phosphorylation (Tyr 705) in U251 glioma cells, humanized vs parental 5D8, western blot", "format": "cell-based, human", "conditions": "antibody over night at 10 μg/ml", "method": "U251 glioma cells were plated in 6-well plates at a density of 150,000 cells/well. Cells were cultured in complete medium for 24 hours before any treatment.\nAfter treatment, proteins were obtained in radio-immunoprecipitation assay (RIPA) lysis buffer containing phosphatase and protease inhibitors, quantified (BCA-protein assay, Thermo Fisher Scientific) and used in western blot. For western blot, membranes were blocked for 1 hour in 5% non-fatty milk—TBST and incubated with the primary antibody overnight (p-STAT3, catalog #9145, Cell Signaling or STAT3, catalog #9132, Cell Signaling) or 30 minutes (β-actin-peroxidase, catalog #A3854, Sigma-Aldrich). Membranes were then washed with TBST, incubated with secondary antibody if necessary, and washed again. Proteins were detected by chemiluminescence (SuperSignal Substrate, catalog #34076, Thermo Fisher Scientific)."}, "[5]": {"test_system": "pSTAT3 under endogenous LIF stimulation in U-251 cells", "assay": "pSTAT3 inhibition under endogenous LIF in serum starved U-251 cells (Meso Scale Discovery)", "format": "cell-based, human", "conditions": "GBM U251, Endogenous LIF Condition", "method": "The U-251 cells were seeded at 600,000 cells per 6 cm plate (per condition). […] As a negative control of pSTAT3, the JAK I inhibitor (Calbiochem #420099) was used at 1 uM for 30 min at 37° C. Cells were then harvested on ice for lysates following the Meso Scale Discovery Multi-Spot Assay System Total STAT3 (Cat #K150SND-2) and Phospho-STAT3 (Tyr705) (Cat #K150SVD-2) kits' protocol, to measure protein levels detectable by the MSD Meso Sector S600."}}, "note": "Entries after “also recorded” stand apart in the source; their conditions may differ.", "data": [{"molecule": "B1", "values": [{"measurement": "CCL22 and CD206 (MRC1) expression (FIG. 10B)", "setting": "[1]", "value": "significant decrease"}, {"measurement": "tumor volume / tumor growth (FIG. 8C)", "setting": "ID8 cells", "value": "reduced tumor volume; also recorded: significant reduction in tumor growth"}, {"measurement": "tumor growth by bioluminescence (FIG. 6)", "setting": "[2]", "value": "promote tumor regression"}, {"measurement": "tumor growth by bioluminescence (FIG. 6)", "setting": "[2]; listed as humanized 5D8", "value": "reduced tumor growth"}, {"measurement": "tumor size by bioluminescence (FIG. 7B)", "setting": "human U251 GBM cells", "value": "statistically significant reduction in tumor"}, {"measurement": "Inhibition of LIF-induced STAT3 phosphorylation, FIG. 1 lanes described in words", "setting": "[3]", "value": "high"}, {"measurement": "inhibition of STAT3 phosphorylation (Tyr 705), humanized clone compared with parental (FIG. 2A)", "setting": "[4]", "value": "increased inhibition"}, {"measurement": "IC90", "setting": "[5]; serum starvation (0.1% FBS), overnight", "value": 4.1, "unit": "nM"}, {"measurement": "JAK inhibition (%) Mean", "setting": "[5]; JAK I inhibitor 1 uM as negative control of pSTAT3", "value": 84, "unit": "%"}]}]}
